Patent US20030211469A1, “Inhibiting hepatitis c virus processing and replication” (priority 2003, published 2003)
Read-outs that look alike come from different tables or passages of the source.

System: HCV NS2/3 (810-1615BK)
Type: biochemical, Hepatitis C virus (BK strain)
Conditions: present during synthesis and processing, 30 minutes
Experimental: HCV residues 810-1615 of the BK strain, which includes all of NS2 and most of NS3 (termed 810-1615BK), was produced from the plasmid pCITE 810-1615BK (a gift from Dr. Nicola La Monica) and has been described previously by Pieroni, et al., (1997) J. Virol. 71, 6373. Following plasmid linearization with BLP1, RNA was transcribed with T7 RNA polymerase and purified. Protein translation was in rabbit reticulocyte lysate, 30° C. for 40 minutes using [^35S]-methionine as a label. Translation was then blocked by the addition of cycloheximide (250 μM final) and the samples were immediately frozen on dry ice.
Prior to processing experiments, an aliquot of translated NS2/3 was thawed on ice. Processing of 810-1615BK was initiated by addition to room temperature solutions containing Triton X-100 at 1%, as described by Pieroni, et al., (1997) J. Virol. 71, 6373. The distribution of [^35S]-labeled proteins on dried gels was determined with a Phosphorimager (Molecular Dynamics). Product bands were quantified and expressed as a proportion of total signal in the gel lane so that variations in gel lane loading were normalized.
NS2/3 processing reactions were performed with 810-1615BK. […] (Darke, et al., (1999) J. Biol. Chem. 274, 34511.) Inhibitors were dissolved in DMSO and protected from light. […]

For `C[C@@H]1C[C@H]2O[C@@H]2/C=C\C=C\C(=O)Cc2c(Cl)c(O)cc(O)c2C(=O)O1` [Radicicol], the “NS2/3 Processed (% of Control)” value (1 μM) was 58 % of Control and the “NS2/3 Processed (% of Control)” value (10 μM) was 46 % of Control.
